In ChEMBL document CHEMBL1139143, “Synthesis and structure-activity relationships of N-substituted spiropiperidines as nociceptin receptor ligands” (Bioorg Med Chem Lett, 2007):

Key:
Mu-type opioid receptor = Mu-type opioid receptor (Homo sapiens, UniProt P35372); assay: Displacement of [3H]diprenorphine from human mu opioid receptor expressed in CHO cell membrane
[1] = target: Kappa-type opioid receptor (Homo sapiens, UniProt P41145); assay: Displacement of [3H]diprenorphine from human kappa opioid receptor expressed in CHO cell membrane
Nociceptin receptor = Nociceptin receptor (Homo sapiens, UniProt P41146); assay: Displacement of [125I]nociceptin from human nociceptin receptor expressed in CHO cell membrane
[2] = target: Delta-type opioid receptor (Homo sapiens, UniProt P41143); assay: Displacement of [3H]diprenorphine from human delta opioid receptor expressed in CHO cell membrane

Compound	Ki (Mu-type opioid receptor) [nM]	Ki [1] [nM]	Ki (Nociceptin receptor) [nM]	Ki [2] [nM]
O=C1NCN(c2ccccc2)C12CCN(Cc1ccccn1)CC2	1760	321	119	31900
O=C1NCN(c2ccccc2)C12CCN(C(c1ccc(F)cc1)c1ccc(F)cc1)CC2	787	2010	49	5600
CC1(C)CCC(N2CCC3(CC2)C(=O)NCN3c2ccccc2)c2cc(Cl)c(Cl)cc21 (stereo not drawn)	977	938	15.1	11700
O=C1NCN(c2ccccc2)C12CCN(C(c1cccc(F)c1)c1cccc(F)c1)CC2	3190	1450	250	10400
O=C1NCN(c2ccccc2)C12CCN(C1c3ccccc3C=Cc3ccccc31)CC2	475	776	36.5	11500
O=C1NCN(c2ccccc2)C12CCN(C1CCCc3ccccc31)CC2 (stereo not drawn)	346	65	1.4	3510
O=C1NCN(c2ccccc2)C12CCN(C(c1ccccc1)c1ccccc1Cl)CC2 (stereo not drawn)	778	1090	9	14800
CCC(c1ccccc1)N1CCC2(CC1)C(=O)NCN2c1ccccc1 (stereo not drawn)	355	60.5	17	6850
O=C1NCN(c2ccccc2)C12CCN(C(c1ccccc1)c1ccccc1F)CC2 (stereo not drawn)	818	1180	10.8	15700
Cc1ccccc1C(c1ccccc1C)N1CCC2(CC1)C(=O)NCN2c1ccccc1	346	1600	9	8600
CC(c1ccccc1)N1CCC2(CC1)C(=O)NCN2c1ccccc1 (stereo not drawn)	74	50	3.5	1040
Cc1ccccc1C(c1ccccc1)N1CCC2(CC1)C(=O)NCN2c1ccccc1 (stereo not drawn)	1110	579	11.5	6040
O=C1NCN(c2ccccc2)C12CCN(CC1CCCCC1)CC2	887	517	61.2	73700
O=C1NCN(c2ccccc2)C12CCN(C(c1ccccc1)C1CCCC1)CC2 (stereo not drawn)	398	26	4.6	4680
O=C1NCN(c2ccccc2)C12CCN(C1c3ccccc3CCc3ccccc31)CC2	2450	1670	225	9780
O=C1NCN(c2ccccc2)C12CCN(C(c1ccccc1)c1ccc(Cl)cc1)CC2 (stereo not drawn)	5080	3530	140	24800
CC1(C)CCC(N2CCC3(CC2)C(=O)NCN3c2ccccc2)c2ccc(Cl)cc21 (stereo not drawn)	49.1	282	1.4	1290
O=C1NCN(c2ccccc2)C12CCN(C(c1cccc(Cl)c1)c1cccc(Cl)c1)CC2	1620	4630	249	26500
O=C1NCN(c2ccccc2)C12CCN(C(c1ccccc1F)c1ccccc1F)CC2	567	858	6.3	16000
O=C1NCN(c2ccccc2)C12CCN(Cc1ccsc1)CC2	133	26.2	14	9000
CCCC(c1ccccc1)N1CCC2(CC1)C(=O)NCN2c1ccccc1 (stereo not drawn)	244	22.5	2.4	3370
CC1(C)CCC(N2CCC3(CC2)C(=O)NCN3c2ccccc2)c2ccc(F)cc21 (stereo not drawn)	59.1	169	8.4	2460
O=C1NCN(c2ccccc2)C12CCN(C1CCCc3ccc(Cl)cc31)CC2 (stereo not drawn)	162	66.5	10.8	2510
O=C1NCN(c2ccccc2)C12CCN(Cc1ccccc1)CC2	500	196	11	2950
O=C1NCN(c2ccccc2)C12CCN(C1CCCc3c(F)cccc31)CC2 (stereo not drawn)	72.3	13.7	0.8	2400
O=C1NCN(c2ccccc2)C12CCN(C1CCCc3c(Cl)cccc31)CC2 (stereo not drawn)	130	94.5	2	2270
O=C1NCN(c2ccccc2)C12CCN(C1CCCCc3ccccc31)CC2 (stereo not drawn)	673	203	14.5	1910
O=C1NCN(c2ccccc2)C12CCN(C1CCCc3ccc(F)cc31)CC2 (stereo not drawn)	133	33.5	0.9	2650
O=C1NCN(c2ccccc2)C12CCN(Cc1ccccc1Cl)CC2			3.2	725
O=C1NCN(c2ccccc2)C12CCN(C1CCCc3cccc(Cl)c31)CC2 (stereo not drawn)	11.1	143	2.6	1380
